Sequences of proteins named here, by UniProt entry; tags and fusion partners are left off.
UniProt Q02750, whole entry, looked up: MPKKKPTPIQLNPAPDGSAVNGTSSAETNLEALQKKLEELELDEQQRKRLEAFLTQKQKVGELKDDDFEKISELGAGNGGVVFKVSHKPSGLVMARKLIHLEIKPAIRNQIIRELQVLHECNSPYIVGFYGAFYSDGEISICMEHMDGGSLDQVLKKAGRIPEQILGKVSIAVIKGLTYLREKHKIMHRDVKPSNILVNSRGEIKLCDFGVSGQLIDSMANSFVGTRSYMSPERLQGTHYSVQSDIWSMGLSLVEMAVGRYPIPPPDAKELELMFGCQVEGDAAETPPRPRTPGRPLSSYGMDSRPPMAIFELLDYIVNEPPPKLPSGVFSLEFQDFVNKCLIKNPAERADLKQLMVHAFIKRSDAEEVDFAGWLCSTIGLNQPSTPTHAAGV

In patent US20260297105A1, “RAF-MEK PROTEIN COMPLEX MODULATORS AND METHODS OF USE THEREOF” (GANDEEVA THERAPEUTICS, INC., priority 2023, published 2026):

Tests used:
[1] = system: BRAF-MEK1; experiment: BRAF-MEK TR-FRET assay, stabilization of MEK1 and BRAF interaction; assay type: binding; conditions: read-out: BRAF-MEK TR-FRET Assay (EC50, fold stabilization); 4 nM BRAF, 10 nM MEK, 100 μM ATP; 1 hr at 25° C.
Excerpt: (§1) Protein expression and purification: BRAF (445-723) with N-term His-tag and C-term StrepII tag was expressed using the Expi293 system (ThermoFisher) and purified using Strep-Tactin® XT-Superflow (IBA) chromatography. ERK1 (full-length) with N-term His-tag was expressed in Rosetta DE3 cells (Millipore) and purified using HisTrap HP (Cytiva) and Superdex 200 (Cytiva) column chromatography. Full-length MEK1 for TR-FRET assays with N-term His-tag was expressed in BL21DE3 cells (ThermoFisher) and purified using HisTrap HP (Cytiva) and Superdex 200 (Cytiva) column chromatography.
Efficacy of exemplary compounds in stabilization of MEK1 and BRAF interaction: Compound stabilization of BRAF-MEK interaction was evaluated using TR-FRET (Time Resolved Fluorescence Energy Transfer). The FRET assay consisted of His-tagged MEK1 (produced in-house), GST-tagged BRAF (SignalChem, B08-11G), Anti His-Tb Cryptate donor, and Anti GST-XL665 acceptor fluorophores (PerkinElmer) to generate FRET signal upon BRAF-MEK1 binding. […] TR-FRET was measured using Cytation5 microplate reader (Agilent) using Ex/Em=340/620 nm and Ex/Em=340/665 nm to determine the FRET ratio. Fold stabilization was calculated as FRET signal of treated well/DMSO control. […]

[2] = molecular target: MEK1 (Homo sapiens, UniProt Q02750); experiment: MEK1 kinase cascade assay (ADP-Glo), inhibition of MEK1 kinase activity; assay type: biochemical; conditions: read-out: BRAF ADP Glo kinase assay V3 (IC50); 25 nM BRAF, 6.25 nM MEK1, 0.5 μM ERK, 1 mM ATP; 20 min preincubation, 1 hr at 25° C.
Excerpt: as §1
Efficacy of exemplary compounds in inhibition of MEK1 kinase activity: The effect of compound MEK1 inhibition was evaluated using an ADP detection system for kinases, such as the ADP-Glo assay (Promega). The MEK1 kinase cascade assay consisted of 9 μL reaction volumes in 384-well white, opaque Optiplates (PerkinElmer). Compounds were prepared from DMSO stocks in assay buffer (10 mM HEPES pH 7.5, 5 mM MgCl2, 2 mM CHAPS, and 1 mM DTT) and preincubated with 25 nM BRAF for 20 mins at 25° C. prior to addition of 6.25 nM MEK1/0.5 μM ERK/1 mM ATP premix to initiate the kinase reaction. […] After a 1 hr incubation at 25° C., conversion of ATP to ADP was detected using ADP-Glo™ reagents according to the manufacturer's protocol. Luminescence was measured using a CLARIOstar microplate reader (BMG). […]

Work on `CNS(=O)(=O)Nc1cccc(CN2Cc3ncc(OC(=O)N(C)C)cc3OC2=O)c1F` yielded an EC50 [1] of 200 to 1000 nM and an IC50 [2] of 5 to 50 nM.
